The test addresses T1, PD-L2-His-biotin (human, UniProt Q9BQ51 20-220, biotin).
T1 construct: PD-L2 with His tag, biotinylated; source: bought: Sino Biological
T1 sequence (looked up): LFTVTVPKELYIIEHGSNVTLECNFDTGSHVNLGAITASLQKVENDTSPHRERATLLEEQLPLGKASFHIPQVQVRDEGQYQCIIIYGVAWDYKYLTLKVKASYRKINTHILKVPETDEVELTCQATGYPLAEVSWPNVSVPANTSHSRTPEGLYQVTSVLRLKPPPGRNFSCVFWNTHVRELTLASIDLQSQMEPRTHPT
The test can be described thus: ELISA; competition: PD-1-mFc coated at 2 μg/mL; 1 μg/mL PD-L2-His-biotin with 0.003-18 μg/mL antibody, 2 h; streptavidin/HRP. To be noted: both partners purified. (In general: An ELISA detects its analyte on a solid surface through an enzyme-linked reagent.)

We go through 1 molecule from publication doi:10.1101/2023.01.16.524197 (bioRxiv, 2023).

B1: PD-1-mFc (Fc fusion, human, UniProt Q15116 25-170, looked up)
chain: LDSPDRPWNPPTFSPALLVVTEGDNATFTCSFSNTSESFVLNWYRMSPSNQTDKLAAFPEDRSQPGQDCRFRVTQLPNGRDFHMSVVRARRNDSGTYLCGAISLAPKAQIKESLRAELRVTERRAEVPTAHPSPSPRPAGQFQTLV
notes: also called PD-1-Fc; human PD-1-mFc; source: bought: Sino Biological
With B1, the binding result was “binds”.
